Literature values in paper PMC3127977, “No relevant cardiac, pharmacokinetic or safety interactions between roflumilast and inhaled formoterol in healthy subjects: an open-label, randomised, actively controlled study” (BMC Clinical Pharmacology, 2011).

Details: cytochrome P450 enzyme inducer co-administered with roflumilast; cited from earlier work

## CO[C@H]1/C=C/O[C@@]2(C)Oc3c(C)c(O)c4c(O)c(c(/C=N/N5CCN(C)CC5)c(O)c4c3C2=O)NC(=O)/C(C)=C\C=C\[C@H](C)[C@H](O)[C@@H](C)[C@@H](O)[C@@H](C)[C@H](OC(C)=O)[C@@H]1C [rifampicin]
  reduction in tPDE4i: 58%
